Here are results for eleven molecules from paper PMC11944621, “Synthesis, Molecular Simulation, DFT, and Kinetic Study of Imidazotriazole-Based Thiazolidinone as Dual Inhibitor of Acetylcholinesterase and Butyrylcholinesterase Enzymes” (Pharmaceuticals, 2025).

Protein sequences, listed by entry. Tags and fused reporters are not part of them. Residues count along the entry.
UniProt P22303, 32-614 limits assumed: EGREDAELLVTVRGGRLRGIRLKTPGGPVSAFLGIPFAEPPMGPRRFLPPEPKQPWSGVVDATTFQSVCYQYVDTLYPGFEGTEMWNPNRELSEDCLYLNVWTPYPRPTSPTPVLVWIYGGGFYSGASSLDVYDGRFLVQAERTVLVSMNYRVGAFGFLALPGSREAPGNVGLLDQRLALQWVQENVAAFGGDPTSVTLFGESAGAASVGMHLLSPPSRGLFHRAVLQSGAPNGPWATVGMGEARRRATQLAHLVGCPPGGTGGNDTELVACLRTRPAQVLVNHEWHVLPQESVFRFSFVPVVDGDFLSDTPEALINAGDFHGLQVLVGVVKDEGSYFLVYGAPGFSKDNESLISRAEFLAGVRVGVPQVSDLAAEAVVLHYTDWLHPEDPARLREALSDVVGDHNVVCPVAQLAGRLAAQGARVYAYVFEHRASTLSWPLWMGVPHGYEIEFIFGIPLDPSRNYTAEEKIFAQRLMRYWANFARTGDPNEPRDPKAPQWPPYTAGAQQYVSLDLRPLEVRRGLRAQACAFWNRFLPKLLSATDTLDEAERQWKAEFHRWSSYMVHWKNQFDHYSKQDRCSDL
UniProt P06276, 29-602 limits assumed: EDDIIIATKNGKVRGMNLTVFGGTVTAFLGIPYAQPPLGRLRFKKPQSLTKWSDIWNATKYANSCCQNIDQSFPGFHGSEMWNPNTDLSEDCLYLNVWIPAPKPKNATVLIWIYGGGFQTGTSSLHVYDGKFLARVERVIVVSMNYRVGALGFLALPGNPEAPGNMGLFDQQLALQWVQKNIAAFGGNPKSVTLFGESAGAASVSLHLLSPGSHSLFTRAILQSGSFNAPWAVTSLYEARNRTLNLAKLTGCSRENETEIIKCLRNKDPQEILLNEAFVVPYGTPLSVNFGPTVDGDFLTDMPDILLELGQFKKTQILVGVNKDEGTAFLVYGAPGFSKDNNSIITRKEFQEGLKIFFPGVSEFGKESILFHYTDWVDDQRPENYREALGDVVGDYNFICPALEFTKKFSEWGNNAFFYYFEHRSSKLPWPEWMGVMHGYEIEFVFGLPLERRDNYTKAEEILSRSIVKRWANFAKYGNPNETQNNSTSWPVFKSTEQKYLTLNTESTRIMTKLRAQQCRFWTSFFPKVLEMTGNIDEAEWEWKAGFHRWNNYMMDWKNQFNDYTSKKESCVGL

In one assay the target is AChE (Homo sapiens, UniProt P22303). The following applies: read-out: AchE IC50 ± SEM.
A further assay deals with BChE (Homo sapiens, UniProt P06276). The following applies: read-out: BChE IC50 ± SEM.

As for `COc1cc(-c2nnc3[nH]ccn23)ccc1N1C(=O)CSC1c1cc(F)cc(F)c1` (stereo not shown), the results for the IC50 on AChE and at BChE were 10.3 µM and 11.6 µM, respectively.
On to `COc1cc(-c2nnc3[nH]ccn23)ccc1N1C(=O)CSC1c1cc(O)cc(F)c1` (stereo not shown), for which the results for the IC50 at AChE and on BChE were 9.7 µM and 10.1 µM, respectively.
In the case of `COc1cc(-c2nnc3[nH]ccn23)ccc1N1C(=O)CSC1c1ccc(Cl)cc1` (stereo not shown), the IC50 on AChE was 17.4 µM; on BChE, 18.1 µM.
For `COc1cc(-c2nnc3[nH]ccn23)ccc1N1C(=O)CSC1c1ccc([N+](=O)[O-])cc1` (stereo not shown) the same measures were 21.4 µM and 22.1 µM.
For `COc1cc(-c2nnc3[nH]ccn23)ccc1N1C(=O)CSC1c1ccc(O)cc1` (stereo not shown), the IC50 came to 11.5 µM on AChE and 12.1 µM at BChE.
In the case of `COc1cc(-c2nnc3[nH]ccn23)ccc1N1C(=O)CSC1c1ccc(F)c(O)c1` (stereo not shown), the IC50 on AChE amounted to 10.4 µM; on BChE, 10.9 µM.
As for `COc1cc(-c2nnc3[nH]ccn23)ccc1N1C(=O)CSC1c1ccc(F)cc1` (stereo not shown), the IC50 came to 12.5 µM at AChE and 13.1 µM at BChE.
For the molecule `COc1ccc(C2SCC(=O)N2c2ccc(-c3nnc4[nH]ccn34)cc2OC)cc1` (stereo not shown), the IC50 on AChE is 19.2 µM; at BChE it was 19.9 µM.
As for `COc1cc(-c2nnc3[nH]ccn23)ccc1N1C(=O)CSC1c1ccc(Cl)cc1[N+](=O)[O-]` (stereo not shown), the IC50 on AChE came out at 20.2 µM; at BChE, 21.3 µM.
As to `COc1cc(-c2nnc3[nH]ccn23)ccc1N1C(=O)CSC1c1ccc(Cl)c(Cl)c1` (stereo not shown), the IC50 worked out at 18.1 µM on AChE and 18.7 µM on BChE.
Regarding `COc1cc(-c2nnc3[nH]ccn23)ccc1N1C(=O)CSC1c1ccc(F)c([N+](=O)[O-])c1` (stereo not shown), the IC50 is 16.2 µM on AChE and 16.7 µM on BChE.
